{
  "source": "patent US8283373B2",
  "about": "“Inhibitors of cytosolic phospholipase A2” (Pfizer Inc., priority 2005, dated 2012)",
  "assay": "Drug exposure in ApoE KO mice fed supplemented chow",
  "assay_type": "in vivo, mouse",
  "conditions": "chow supplemented at 1.3 mg/g",
  "description": "Six week old male ApoE KO mice were treated with 4-{3-[1-benzhydryl-5-chloro-2-(2-{[(3,4-dichlorobenzyl)sulfonyl]amino}ethyl)-1H-indol-3-yl]propyl}benzoic acid (Compound C). Mice were fed a normal chow diet supplemented with Compound C at 1.3 mg/g and 3.3 mg/g (resulting in ˜250 ng/mL and ˜500 ng/mL maximum drug exposure, respectively) or vehicle for 20 weeks.",
  "data": [
    {"smiles": "O=C(O)c1ccc(CCCc2c(CCNS(=O)(=O)Cc3ccc(Cl)c(Cl)c3)n(C(c3ccccc3)c3ccccc3)c3ccc(Cl)cc23)cc1", "note": "[Compound C, 4-{3-[1-benzhydryl-5-chloro-2-(2-{[(3,4-dichlorobenzyl)sulfonyl]amino}ethyl)-1H-indol-3-yl]propyl}benzoic acid]", "values": [
      {"measurement": "maximum drug exposure", "value": "~250", "unit": "ng/mL"}
    ]}
  ]
}
